Assay results: patent US6716822B2, “Therapeutic agent for ischemia which inhibits apoptosis under ischemic condition” (priority 2000, dated 2004)

Tested on: HepG2 cells
Experiment: HepG2 cell viability under low oxygen (1% v/v) condition, trypan blue exclusion
Format: cell-based, human
Conditions: 1% (v/v) oxygen

## Nc1ccc(S(=O)(=O)Nc2ncccn2)cc1 [sulfadiazine]
  Enhancement effect on cell viability under hypoxic condition (in words): did not show any effect
